Measurements published in US20240209034A1 (priority 2021, published 2024).

By UniProt entry, the sequences of proteins in these tests, tags left out. Residues count along the entry.
UniProt P06756, 891-1048 partner limits assumed: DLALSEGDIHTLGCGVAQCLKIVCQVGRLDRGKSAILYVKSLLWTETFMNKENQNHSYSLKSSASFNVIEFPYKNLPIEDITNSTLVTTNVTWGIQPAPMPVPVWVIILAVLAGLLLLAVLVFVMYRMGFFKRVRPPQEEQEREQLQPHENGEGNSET
UniProt P06756, 31-889 limits assumed: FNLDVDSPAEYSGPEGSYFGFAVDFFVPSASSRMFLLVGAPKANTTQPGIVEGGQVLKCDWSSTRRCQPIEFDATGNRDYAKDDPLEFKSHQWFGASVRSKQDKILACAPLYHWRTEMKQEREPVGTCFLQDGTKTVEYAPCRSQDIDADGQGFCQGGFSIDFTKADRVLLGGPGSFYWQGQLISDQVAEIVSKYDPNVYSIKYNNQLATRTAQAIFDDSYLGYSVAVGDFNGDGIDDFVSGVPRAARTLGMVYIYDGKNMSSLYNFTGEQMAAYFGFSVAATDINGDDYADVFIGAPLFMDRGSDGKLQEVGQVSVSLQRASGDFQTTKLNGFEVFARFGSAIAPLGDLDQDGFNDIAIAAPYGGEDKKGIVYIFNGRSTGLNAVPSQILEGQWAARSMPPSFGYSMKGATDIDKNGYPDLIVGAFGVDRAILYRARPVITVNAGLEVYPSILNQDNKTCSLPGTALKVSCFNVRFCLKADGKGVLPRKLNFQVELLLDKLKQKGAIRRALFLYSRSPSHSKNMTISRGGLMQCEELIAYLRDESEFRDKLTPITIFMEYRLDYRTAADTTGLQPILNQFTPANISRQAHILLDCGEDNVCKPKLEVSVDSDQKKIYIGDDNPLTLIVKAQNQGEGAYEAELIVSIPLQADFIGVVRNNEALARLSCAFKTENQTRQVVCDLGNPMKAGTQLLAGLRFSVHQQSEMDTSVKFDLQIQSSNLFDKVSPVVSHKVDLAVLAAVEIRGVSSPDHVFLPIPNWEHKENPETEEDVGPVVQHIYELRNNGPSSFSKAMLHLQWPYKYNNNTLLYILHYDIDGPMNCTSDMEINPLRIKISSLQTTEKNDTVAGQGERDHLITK
UniProt P18564, 22-788 limits assumed: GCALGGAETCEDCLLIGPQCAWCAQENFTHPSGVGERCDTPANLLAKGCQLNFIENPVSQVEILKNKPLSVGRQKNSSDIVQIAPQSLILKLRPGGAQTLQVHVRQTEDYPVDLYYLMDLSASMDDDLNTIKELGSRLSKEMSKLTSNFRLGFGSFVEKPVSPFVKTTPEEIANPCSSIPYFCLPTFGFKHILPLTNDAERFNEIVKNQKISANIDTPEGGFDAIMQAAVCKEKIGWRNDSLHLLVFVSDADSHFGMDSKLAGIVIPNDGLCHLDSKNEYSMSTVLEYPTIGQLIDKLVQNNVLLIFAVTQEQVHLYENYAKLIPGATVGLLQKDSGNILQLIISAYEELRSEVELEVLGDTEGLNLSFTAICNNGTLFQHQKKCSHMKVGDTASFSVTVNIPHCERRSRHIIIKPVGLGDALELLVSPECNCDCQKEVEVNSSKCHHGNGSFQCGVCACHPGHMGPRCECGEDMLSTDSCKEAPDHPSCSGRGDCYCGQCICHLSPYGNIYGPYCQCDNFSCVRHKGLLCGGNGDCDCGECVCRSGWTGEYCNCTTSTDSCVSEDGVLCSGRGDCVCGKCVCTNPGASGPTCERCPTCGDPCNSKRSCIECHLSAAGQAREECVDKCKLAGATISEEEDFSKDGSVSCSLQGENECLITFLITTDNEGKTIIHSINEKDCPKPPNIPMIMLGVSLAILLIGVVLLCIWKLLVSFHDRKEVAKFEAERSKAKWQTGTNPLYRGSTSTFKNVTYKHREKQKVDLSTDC

Key:
[1] = molecular target: integrin αvβ6 (K562 αvβ6:mCherry cells) (Homo sapiens, UniProt P06756+P18564); conditions: read-out: apparent binding affinity (KD)
[2] = mouse, 24 h
[3] = mouse, in vivo

Structure (SMILES)	Kd [1]	remaining fully intact peptide in serum [2]	half-life ([3]; distribution half-life)	half-life ([3]; elimination half-life)
CC(C)C[C@@H]1NC(=O)[C@H](CC(=O)O)NC(=O)CNC(=O)[C@H](CCCNC(=N)N)NC(=O)[C@H](CC(C)C)NC(=O)[C@H](CC(N)=O)NC(=O)[C@@H]2CCCN2C(=O)[C@H](C(C)C)NC(=O)[C@H](C)NC(=O)[C@@H](NC(=O)CCCC[C@@H]2SC[C@@H]3NC(=O)N[C@@H]32)CSc2c(F)c(F)c(c(F)c2F)-c2c(F)c(F)c(c(F)c2F)SC[C@@H](C(=O)N[C@@H](CCCNC(=N)N)C(=O)N[C@H](C(=O)N[C@@H](CCCCN)C(N)=O)[C@@H](C)O)NC(=O)[C@H](C(C)C)NC(=O)[C@H](CCCCN)NC(=O)[C@H](CCC(N)=O)NC(=O)[C@H](C)NC(=O)[C@H](CC(C)C)NC(=O)[C@H](C(C)C)NC(=O)[C@H](CCC(N)=O)NC1=O [C1C18 DFBP]	0.0853 ± 0.0186 µM	–	–	–
CC(C)C[C@@H]1NC(=O)[C@H](CC(=O)O)NC(=O)CNC(=O)[C@H](CCCNC(=N)N)NC(=O)[C@H](CC(C)C)NC(=O)[C@H](CC(N)=O)NC(=O)[C@@H]2CCCN2C(=O)[C@H](C(C)C)NC(=O)[C@@H](NC(=O)[C@H](CC(N)=O)NC(=O)CCCC[C@@H]2SC[C@@H]3NC(=O)N[C@@H]32)CSc2c(F)c(F)c(c(F)c2F)-c2c(F)c(F)c(c(F)c2F)SC[C@@H](C(=O)N[C@@H](CCCNC(N)=O)C(=O)N[C@H](C(=O)N[C@@H](CCCCN)C(=O)N[C@H](C)C(N)=O)[C@@H](C)O)NC(=O)[C@H](C(C)C)NC(=O)[C@H](CCCCN)NC(=O)[C@H](CCC(N)=O)NC(=O)[C@H](C)NC(=O)[C@H](CC(C)C)NC(=O)[C@H](C(C)C)NC(=O)[C@H](CCC(N)=O)NC1=O [C2C18 CitTKAD DFBP]	0.0758 ± 0.024 µM	10.4%	–	–
CC(C)C[C@@H]1NC(=O)[C@H](CC(=O)O)NC(=O)CNC(=O)[C@H](CCCNC(=N)N)NC(=O)[C@H](CC(C)C)NC(=O)[C@H](CC(N)=O)NC(=O)[C@@H]2CCCN2C(=O)[C@H](C(C)C)NC(=O)[C@@H](NC(=O)[C@H](CC(N)=O)NC(=O)CCCC[C@@H]2SC[C@@H]3NC(=O)N[C@@H]32)CSc2c(F)c(F)c(c(F)c2F)-c2c(F)c(F)c(c(F)c2F)SC[C@@H](C(=O)N[C@@H](CCCNC(=N)N)C(=O)N[C@H](C(=O)N[C@@H](CCCCN)C(N)=O)[C@@H](C)O)NC(=O)[C@H](C(C)C)NC(=O)[C@H](CCCCN)NC(=O)[C@H](CCC(N)=O)NC(=O)[C@H](C)NC(=O)[C@H](CC(C)C)NC(=O)[C@H](C(C)C)NC(=O)[C@H](CCC(N)=O)NC1=O [C2C18 DFBP]	0.0708 ± 0.0203 µM	–	–	–
CC(C)C[C@@H]1NC(=O)[C@H](CC(=O)O)NC(=O)CNC(=O)[C@H](CCCNC(=N)N)NC(=O)[C@H](CC(C)C)NC(=O)[C@H](CC(N)=O)NC(=O)[C@@H]2CCCN2C(=O)[C@H](C(C)C)NC(=O)[C@@H](NC(=O)[C@H](CC(N)=O)NC(=O)CCCC[C@@H]2SC[C@@H]3NC(=O)N[C@@H]32)CSc2c(F)c(F)c(c(F)c2F)-c2c(F)c(F)c(c(F)c2F)SC[C@@H](C(=O)N[C@H](CCCNC(=N)N)C(=O)N[C@H](C(=O)N[C@@H](CCCCN)C(=O)N[C@H](C)C(N)=O)[C@@H](C)O)NC(=O)[C@H](C(C)C)NC(=O)[C@H](CCCCN)NC(=O)[C@H](CCC(N)=O)NC(=O)[C@H](C)NC(=O)[C@H](CC(C)C)NC(=O)[C@H](C(C)C)NC(=O)[C@H](CCC(N)=O)NC1=O [C2C18 RDTKAD DFBP]	0.0553 ± 0.00606 µM	–	–	–
CC(=O)N[C@@H](CC(N)=O)C(=O)N[C@H]1CSc2c(F)c(F)c(c(F)c2F)-c2c(F)c(F)c(c(F)c2F)SC[C@@H](C(=O)N[C@H](CCCNC(=N)N)C(=O)N[C@H](C(=O)N[C@H](CCCCNC(=O)CCCCC[N+]2=C(/C=C/C=C/C=C3/N(C)c4ccccc4C3(C)C)C(C)(C)c3ccccc32)C(N)=O)[C@@H](C)O)NC(=O)[C@H](C(C)C)NC(=O)[C@H](CCCCN)NC(=O)[C@H](CCC(N)=O)NC(=O)[C@@H](C)NC(=O)[C@H](CC(C)C)NC(=O)[C@H](C(C)C)NC(=O)[C@H](CCC(N)=O)NC(=O)[C@H](CC(C)C)NC(=O)[C@H](CC(=O)O)NC(=O)CNC(=O)[C@H](CCCNC(=N)N)NC(=O)[C@H](CC(C)C)NC(=O)[C@H](CC(N)=O)NC(=O)[C@@H]2C[C@@H](O)CN2C(=O)[C@H](C(C)C)NC1=O [Cy5-labeled C2C18 PhADRDTKD DFBP]	–	–	~2 min	~50 min

Where two headings read alike, the source gives them in different places.
